Experimental data reported in patent US6869925 (Amgen, dated 2005).

Target: SLPI binding sites on U937 cells (human monocyte cell line; intact cells, PMA-induced cells or plasma membranes) (human)
Experiment: competition with 125I-SLPI, U937 plasma membranes, Kd by Cheng-Prusoff

Question: With aprotinin (from UniProt P00974 36-93) as the substance, how does the Kd read?
Answer: The Kd was 10 µM.
